Assay results published in publication PMC6141585.

B1: GFP-Mc (GFP fused to rat MAP6 Mc modules) (domain or fragment)
chain: VPAAGKASGADQRDTRRKAGPAWMVTRTEGHEEKPLPPAQSQTQEGGPAAGKASGADQRDTRRKAGPAWMVTRTEGHEEKPLPPAQSQTQEGGPAAGKASGADQRDTRRKAGPAWMVTRTEGHEETPLPPAQSQTQEGGPAAGKASGADQRDTRRKAGPAWMVTRTEGHEETPLPPAQSQTQEGGPAAGKASGADERDTRRKAGPAWMVRRSEGHEQTTAAHAQGTGPEGGKGRA

What was measured:
[1] = molecular target: actin filaments (purified actin, polymerised in vitro)
[2] = molecular target: actin filaments (purified actin, polymerised in vitro); test: co-sedimentation; high-speed (100,000xg) co-sedimentation; polymerised actin (500 nM in the titration) incubated with Mc modules in AP buffer for 1 h at room temperature; pellet and supernatant by SDS-PAGE and Coomassie; titration quantified by immunoblot (antibody 23C), fit to a single-site isotherm
[3] = molecular target: actin filaments in growth cones of cultured hippocampal neurons (mouse (endogenous in cultured hippocampal neurons)); test: FRET or BRET; acceptor photobleaching FRET in growth cones of fixed 2 DIV hippocampal neurons; donor GFP or GFP-tagged construct, acceptor TRITC-phalloidin on actin filaments

Molecule | loss of pyrene-actin fluorescence after buffer dilution, filaments with Mc modules (actin alone −25%) (% of the initial fluorescence) [1] | Kd [2] | FRET efficiency [3]
MAP6 Mc modules (Mc domain), purified (from UniProt Q63560 221-455) (domain or fragment) | -11 | 670 nM | –
B1 | – | – | 49.6%
